## Yeast mating assay 2: variants of the scFv Ab-91

Data: MIT Lincoln Laboratory AlphaSeq set, Engelhart et al. 2022, doi:10.1038/s41597-022-01779-4, as distributed in FLAb.

Antigen: PDVDLGDISGINAS, a 14-residue peptide of the SARS-CoV-2 spike HR2 region.

Each scFv is VL, the linker GGGGSGGGGSGGGGS, VH, as in the parent Ab-91, and differs from it in the CDRs of the heavy chain only.
VL: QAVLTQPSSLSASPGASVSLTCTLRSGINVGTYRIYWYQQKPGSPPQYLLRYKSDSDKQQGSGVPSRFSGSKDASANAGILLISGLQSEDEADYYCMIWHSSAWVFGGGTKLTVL
VH: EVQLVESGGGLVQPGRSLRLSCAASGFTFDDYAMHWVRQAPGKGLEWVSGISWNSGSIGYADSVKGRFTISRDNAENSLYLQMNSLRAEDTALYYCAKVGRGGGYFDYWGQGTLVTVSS

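The library (AAYL51) carries one to three amino acid substitutions per variant, with no insertions or deletions. The assay is AlphaSeq: two haploid yeast populations carry antibody and antigen on their surface. The frequency of each diploid, read from paired DNA barcodes, reflects how well the two displayed proteins bind. A regression on co-assayed BCL2-family reference pairs converts the normalised counts of each replicate to an apparent Kd. Mating was done three times.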

Positions count from residue 1 of the parent VH; D30S puts S in place of D. All variants listed here change G59 of the VH, counted from its first residue. The Kd shown is the geometric mean over detected replicates; a lower Kd is a better binder. "nd" means that the variant was in the library but no mating with the target was seen in any replicate; the authors take this as a sign of poor binding, and no number exists. Parent in this assay: reference entry 72 nM, copy in this library 7.5 nM. As a blank, each scFv also met three strains without target: over library AAYL51, 21% of these pairings were detected, typically at 34 µM and seldom below 1.8 µM. For each scFv, signals with the empty controls are counted beside the result.

- D30S+A33W+G59I: nd (0 of 3 replicates; controls 1 of 9)
- D30W+G59F+R101V: nd (0 of 3 replicates; controls 0 of 9)
- S57I+G59N+V64W: 8.9 µM (1 of 3 replicates; controls 2 of 9)
- Y32P+S55W+G59A: nd (0 of 3 replicates; controls 2 of 9)
- Y32S+G59E+D107G: 64 µM (2 of 3 replicates; controls 4 of 9)
- N54G+I58M+G59H: 21 µM (1 of 3 replicates; controls 1 of 9)
- G59I+S63Q+G102I: nd (0 of 3 replicates; controls 0 of 9)
- G50N+G59W+F106W: 340 µM (1 of 3 replicates; controls 0 of 9)
- G50P+G59T+D107I: 84 µM (3 of 3 replicates; controls 9 of 9)
- D30Q+H35N+G59L: 41 µM (1 of 3 replicates; controls 3 of 9)
- M34E+G50V+G59T: nd (0 of 3 replicates; controls 0 of 9)
- G59Y+G103W: 5.3 µM (1 of 3 replicates; controls 1 of 9)
- G26E+S57F+G59P: 120 µM (3 of 3 replicates; controls 5 of 9)
- F27K+D31I+G59I: 400 µM (1 of 3 replicates; controls 0 of 9)
- Y32S+W53F+G59K: 67 µM (2 of 3 replicates; controls 2 of 9)
- W53M+G59Y+G100D: 22 µM (2 of 3 replicates; controls 0 of 9)
- G26M+I51A+G59N: 39 µM (3 of 3 replicates; controls 5 of 9)
- H35M+I51F+G59A: nd (0 of 3 replicates; controls 0 of 9)
- T28G+G59Y+Y105M: nd (0 of 3 replicates; controls 2 of 9)
- G59K+D62S+G102A: 42 µM (1 of 3 replicates; controls 3 of 9)
- S52H+G59T+A61T: nd (0 of 3 replicates; controls 4 of 9)
- G59R+A61Q+G104R: 7.5 µM (1 of 3 replicates; controls 2 of 9)
- S57G+G59W+G103R: nd (0 of 3 replicates; controls 0 of 9)
- G50F+N54G+G59L: nd (0 of 3 replicates; controls 1 of 9)
- D30F+G59H+D107V: 210 µM (2 of 3 replicates; controls 3 of 9)
- G59W+G103S: 250 µM (2 of 3 replicates; controls 6 of 9)
- A33H+W53G+G59P: nd (0 of 3 replicates; controls 2 of 9)
- G26R+S55M+G59L: nd (0 of 3 replicates; controls 2 of 9)
- D30V+G59H: 130 µM (1 of 3 replicates; controls 1 of 9)
- S55F+G59K+Y60C: nd (0 of 3 replicates; controls 0 of 9)
- I58H+G59S+A61N: nd (0 of 3 replicates; controls 0 of 9)
- I58T+G59T+V64G: 27 µM (1 of 3 replicates; controls 1 of 9)
- G59K+V99Q+G102F: 1.3 µM (1 of 3 replicates; controls 0 of 9)

From the list, the first 3 with no signal in any replicate:

{"changes": "D30S+A33W+G59I", "Kd (apparent)": "nd", "detected": "0 of 3", "empty controls": "1 of 9"}
{"changes": "D30W+G59F+R101V", "Kd (apparent)": "nd", "detected": "0 of 3", "empty controls": "0 of 9"}
{"changes": "Y32P+S55W+G59A", "Kd (apparent)": "nd", "detected": "0 of 3", "empty controls": "2 of 9"}